The target in one experiment is T1, human CB2 receptor (Homo sapiens, UniProt P34972).
T1 construct: host or cells: CHO-K1
Description: CB2 radioligand competitive binding assay ([3H]CP 55,940 displacement).

Chains of the proteins cited; added tags and fusions are not shown.
UniProt P34972, whole entry: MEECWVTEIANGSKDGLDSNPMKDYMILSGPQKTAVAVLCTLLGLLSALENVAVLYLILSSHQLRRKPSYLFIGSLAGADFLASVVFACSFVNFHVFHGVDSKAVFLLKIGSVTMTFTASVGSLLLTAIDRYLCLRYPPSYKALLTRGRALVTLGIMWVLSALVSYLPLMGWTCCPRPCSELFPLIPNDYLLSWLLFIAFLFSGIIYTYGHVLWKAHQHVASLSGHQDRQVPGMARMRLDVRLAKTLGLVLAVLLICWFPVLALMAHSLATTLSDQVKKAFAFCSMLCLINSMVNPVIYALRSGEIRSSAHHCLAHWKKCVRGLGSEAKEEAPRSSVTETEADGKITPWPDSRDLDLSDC
UniProt P21554, whole entry: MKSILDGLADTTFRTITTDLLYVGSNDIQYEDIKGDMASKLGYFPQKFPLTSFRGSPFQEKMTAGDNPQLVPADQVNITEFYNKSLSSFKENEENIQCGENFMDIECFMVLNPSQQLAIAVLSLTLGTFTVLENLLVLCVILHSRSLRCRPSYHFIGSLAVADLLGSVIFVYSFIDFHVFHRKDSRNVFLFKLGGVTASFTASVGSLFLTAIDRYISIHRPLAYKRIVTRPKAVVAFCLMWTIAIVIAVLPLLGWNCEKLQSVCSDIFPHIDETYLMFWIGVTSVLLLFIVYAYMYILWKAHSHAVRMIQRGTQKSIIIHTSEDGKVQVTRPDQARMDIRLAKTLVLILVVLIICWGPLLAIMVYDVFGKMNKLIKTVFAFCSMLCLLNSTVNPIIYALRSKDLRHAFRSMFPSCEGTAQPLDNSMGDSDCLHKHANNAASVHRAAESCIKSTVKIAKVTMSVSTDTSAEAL

Experiment [1] has as its target T2, human CB1 receptor (Homo sapiens, UniProt P21554).
T2 construct: host or cells: CHO-K1
As to the kind of experiment: CB1 radioligand competitive binding assay ([3H]CP 55,940 displacement).

For experiment [2], the target named is T2, human CB1 receptor. Description: PathHunter β-arrestin functional assay, CB1 receptor, agonist mode. The class given is cell-based.

This is an account of results in US12195429B2, “Cannabinoid derivatives” (CANOPY GROWTH CORPORATION, priority 2019, dated 2025).

Where two headings read alike, the source gives them in different places.

`CCCCCc1cc(O)c(C2C=C(C)CCC2)c(O)c1-c1nnn[nH]1` (stereo not drawn) [Compound 3c, 5′-methyl-4-pentyl-3-(1H-tetrazol-5-yl)-1′,2′,3′,4′-tetrahydro-[1,1′-biphenyl]-2,6-diol]: the “Selectivity CB2” value on human CB2 receptor is recorded as 1.00 fold. Further, the “Selectivity CB1” value on human CB1 receptor [1] is 1.00 fold. At human CB1 receptor [2], the “activity towards the human CB1 receptor, agonist mode” value is “minimal to no activity”.

For the compound `CCCCCc1cc(O)c(C2C=C(C)CCC2)c(O)c1-c1cncnc1` (stereo not drawn) [Compound 13c, 5′-methyl-4-pentyl-3-(pyrimidin-5-yl)-1′,2′,3′,4′-tetrahydro-[1,1′-biphenyl]-2,6-diol], the “Selectivity CB2” value on human CB2 receptor (fold difference in binding affinity, CB2 over CB1, 1.00 = about the same affinity for both receptors) is given as 1.00 fold. The “Selectivity CB1” value at human CB1 receptor [1] came out at 1.00 fold.

On to `CCCCCc1cc(O)c(C2C=C(C)CCC2)c(O)c1-c1ccsc1` (stereo not drawn) [Compound 17c, 5′-methyl-4-pentyl-3-(thiophen-3-yl)-1′,2′,3′,4′-tetrahydro-[1,1′-biphenyl]-2,6-diol], for which the “Selectivity CB2” value at human CB2 receptor stood at 1.18 fold. For the same compound, the “activity towards the human CB1 receptor, agonist mode” value on human CB1 receptor [2] is “minimal to no activity”.

Regarding `CCCCCc1cc(O)c(C2C=C(C)CCC2)c(O)c1-c1ccco1` (stereo not drawn) [Compound 15c, 3-(furan-2-yl)-5′-methyl-4-pentyl-1′,2′,3′,4′-tetrahydro-[1,1′-biphenyl]-2,6-diol], on human CB2 receptor, the “Selectivity CB2” value was 1.82 fold. Also, the “activity towards the human CB1 receptor, agonist mode” value at human CB1 receptor [2] is on record as “minimal to no activity”.
